From PMC11096148, “[^68Ga]Ga-NODAGA-TriGalactan, a low molecular weight tracer for the non-invasive imaging of the functional liver reserve” (EJNMMI Radiopharmacy and Chemistry, 2024)

Tests used:
[1] = target: T1, asialoglycoprotein receptor (ASGR) (Mus musculus, UniProt P24721+P34927); test: Competitive binding against [^125I]I-asialoorosomucoid on freshly isolated mouse hepatocytes; details: [^125I]I-asialoorosomucoid 5 nM, 1 hour on ice
T1 construct: endogenous in cells; host or cells: primary hepatocytes freshly isolated from C57BL/6 mice (collagenase perfusion)
T1 sequence (P34927 1-284): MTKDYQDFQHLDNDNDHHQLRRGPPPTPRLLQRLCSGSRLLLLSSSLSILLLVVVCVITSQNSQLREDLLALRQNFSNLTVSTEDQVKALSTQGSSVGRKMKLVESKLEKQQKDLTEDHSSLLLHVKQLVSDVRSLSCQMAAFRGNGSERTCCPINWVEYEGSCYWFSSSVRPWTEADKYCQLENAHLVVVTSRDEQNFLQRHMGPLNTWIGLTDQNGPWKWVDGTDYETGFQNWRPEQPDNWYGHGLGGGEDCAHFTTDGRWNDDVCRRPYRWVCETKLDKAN
T1 sequence (P24721 1-301): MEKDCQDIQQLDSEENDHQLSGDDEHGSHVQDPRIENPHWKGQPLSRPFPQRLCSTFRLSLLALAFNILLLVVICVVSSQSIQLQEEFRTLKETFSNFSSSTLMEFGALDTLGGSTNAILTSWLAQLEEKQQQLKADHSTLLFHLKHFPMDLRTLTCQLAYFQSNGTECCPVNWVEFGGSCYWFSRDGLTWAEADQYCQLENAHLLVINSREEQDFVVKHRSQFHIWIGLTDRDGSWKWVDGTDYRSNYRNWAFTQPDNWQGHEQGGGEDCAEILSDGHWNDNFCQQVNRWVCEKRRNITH
Protocol: Inhibitory constant (IC50) values were determined in triplicates using freshly isolated mouse hepatocytes (Seglen [1976]). A detailed protocol can be found in the supplementary information. In brief, cells were incubated in presence of [^125I]I-asialoorosomucoid (5 nM) with various ligand concentrations ranging from 10^− 5-10^− 11 M for 1 hour on ice. Cells were washed and cell bound activity was released by addition of 200 µL 1 M NaOH for 10 min. The activity content in the lysates was quantified in a γ-counter (2480 Wizard^2 3”, PerkinElmer, Waltham, Massachussetts, USA) and the values were plotted in excel. Fitting of the sigmoidal binding curve and the calculation of the IC50 value was done with excel’s solver plugin.
Furthermore, low protein binding could be observed, rising from 7.6 ± 3.9% (n = 3) after 2 min to 13.6 ± 3.2% (n = 3) after 120 min of incubation. […] Binding to the ASGR was quantified in an assay with freshly isolated mouse hepatocytes using the ^natGa-complex of NODAGA-TriGalactan. […] For comparison, the affinity of GSA for the receptor was also determined.
Isolation of murine hepatocytes followed the collagenase perfusion method published by Seglen. […] Hepatocytes were resuspended in 20 – 30 mL of William’s E + Glutamaxx + 10 % FCS + 1 % Penicillin/Streptomycin (Gibco, Thermofisher Scientific) and counted, typically yielding 30 – 40 × 10^6 cells/animal. […]

logD determination = type: physicochemical
[2] = Biodistribution studies in healthy BALB/c mice; type: in vivo
[3] = human blood serum, ref Haubner et al. [2013], cited from earlier work
[4] = ref Haubner et al. [2013], cited from earlier work

[^99mTc]Tc-diethylenetriamine-pentaacetic acid galactosyl human serum albumin [^99mTc-GSA, reference compound]
IC50 [1]: 19.6 ± 17.1 nM
logD (logD determination): -1.88 ± 0.02 (n = 8)
Biodistribution Blood ([2]; 10 min p.i.): 3.13 ± 0.15 % ID/g
Biodistribution Femur ([2]; 10 min p.i.): 1.54 ± 0.18 % ID/g
Biodistribution Heart ([2]; 10 min p.i.): 1.47 ± 0.07 % ID/g
Biodistribution Intestine ([2]; 10 min p.i.): 1.10 ± 0.05 % ID/g
Biodistribution Kidneys ([2]; 10 min p.i.): 7.35 ± 0.51 % ID/g
Biodistribution Liver ([2]; 10 min p.i.): 58.1 ± 6.7 % ID/g
Biodistribution Lung ([2]; 10 min p.i.): 2.04 ± 0.11 % ID/g
Biodistribution Muscle ([2]; 10 min p.i.): 0.60 ± 0.04 % ID/g
Biodistribution Pancreas ([2]; 10 min p.i.): 0.64 ± 0.02 % ID/g
Biodistribution Spleen ([2]; 10 min p.i.): 1.37 ± 0.16 % ID/g
Biodistribution Stomach ([2]; 10 min p.i.): 0.91 ± 0.01 % ID/g
Biodistribution Blood ([2]; 30 min p.i.): 2.76 ± 0.57 % ID/g
Biodistribution Femur ([2]; 30 min p.i.): 3.64 ± 1.98 % ID/g
Biodistribution Heart ([2]; 30 min p.i.): 1.08 ± 0.16 % ID/g
Biodistribution Intestine ([2]; 30 min p.i.): 6.41 ± 1.05 % ID/g
Biodistribution Kidneys ([2]; 30 min p.i.): 10.5 ± 2.00 % ID/g
Biodistribution Liver ([2]; 30 min p.i.): 51.3 ± 2.78 % ID/g
Biodistribution Lung ([2]; 30 min p.i.): 1.64 ± 0.20 % ID/g
Biodistribution Muscle ([2]; 30 min p.i.): 0.45 ± 0.06 % ID/g
Biodistribution Pancreas ([2]; 30 min p.i.): 0.48 ± 0.07 % ID/g
Biodistribution Spleen ([2]; 30 min p.i.): 1.42 ± 0.39 % ID/g
Biodistribution Stomach ([2]; 30 min p.i.): 1.61 ± 0.20 % ID/g
Biodistribution Blood ([2]; 60 min p.i.): 1.98 ± 0.10 % ID/g
Biodistribution Femur ([2]; 60 min p.i.): 2.48 ± 0.48 % ID/g
Biodistribution Heart ([2]; 60 min p.i.): 0.81 ± 0.07 % ID/g
Biodistribution Intestine ([2]; 60 min p.i.): 9.8 ± 1.6 % ID/g
Biodistribution Kidneys ([2]; 60 min p.i.): 9.21 ± 0.21 % ID/g
Biodistribution Liver ([2]; 60 min p.i.): 46.3 ± 5.9 % ID/g
Biodistribution Lung ([2]; 60 min p.i.): 1.38 ± 0.11 % ID/g
Biodistribution Muscle ([2]; 60 min p.i.): 0.39 ± 0.00 % ID/g
Biodistribution Spleen ([2]; 60 min p.i.): 1.18 ± 0.20 % ID/g
Biodistribution Stomach ([2]; 60 min p.i.): 2.43 ± 1.45 % ID/g
Serum stability ([3]; 2 min): 82 (Haubner et al. [2013]) %
Serum stability ([3]; 30 min): 76 (Haubner et al. [2013]) %
Serum stability ([3]; 60 min): 70 (Haubner et al. [2013]) %
Serum stability ([3]; 120 min): 65 (Haubner et al. [2013]) %
PBS stability ([4]; 2 min): 97.6 (Haubner et al. [2013]) %
PBS stability ([4]; 30 min): 97.1 (Haubner et al. [2013]) %
PBS stability ([4]; 120 min): 95.6 (Haubner et al. [2013]) %

O=C([O-])CN1CCN(CC(=O)[O-])CCN([C@H](CCC(=O)NCCCC(=O)NC(COCc2cn(CCOCCOCCO[C@@H]3O[C@H](CO)[C@H](O)[C@H](O)[C@H]3O)nn2)(COCc2cn(CCOCCOCCO[C@@H]3O[C@H](CO)[C@H](O)[C@H](O)[C@H]3O)nn2)COCc2cn(CCOCCOCCO[C@@H]3O[C@H](CO)[C@H](O)[C@H](O)[C@H]3O)nn2)C(=O)[O-])CC1.[68Ga+3] [[^68Ga]Ga-NODAGA-TriGalactan]
Biodistribution Heart ([2]; 10 min p.i.): 1.18 ± 0.08 % ID/g
Biodistribution Stomach ([2]; 10 min p.i.): 1.42 ± 0.23 % ID/g

DTPA-conjugated galactosyl human serum albumin [GSA]
IC50 [1]: 19.6 ± 17.1 nM

Read-outs that look alike come from different tables or passages of the source.
